Measurements published in PMC6374516, “Phencynonate S-isomer as a eutomer is a novel central anticholinergic drug for anti-motion sickness” (2019).

What was measured:
[1] = Chiral metabolism in rat liver microsomes
[2] = Plasma protein binding in rat plasma by equilibrium dialysis
motion sickness [3] = settings: clinical trials, cited from earlier work
locomotor activity = assay: Locomotor activity test in mice; settings: 1.4 and 5.6 mg/kg, oral
Caco-2 cell monolayer = assay: Transport across a Caco-2 cell monolayer; settings: AP to BL, within 120 min after dosing, R- versus S-isomer
CYP1A1 = CYP1A1 protein level in rat liver by Western blot; settings: compared to control group
motion sickness [4] = assay: Rotation stimulation, motion sickness index in mice; settings: oral, 30 min before rotation
[5] = high-concentration (400 μM racemate), after 150 min
[6] = low-concentration group (100 μM racemate), after 120 min
[7] = medium-concentration (200 μM racemate), after 150 min
[8] = isomer concentration 62.5 μg/ml

Q: What does the source list for `CN1CC2CCCC(C1)C2OC(=O)[C@@](O)(c1ccccc1)C1CCCC1` (some centres unmarked)?
A: unchanged concentration in rat liver microsomes [1, 5]: 127.93 ± 5.71; unchanged concentration in rat liver microsomes [1, 6]: 36.88 ± 0.42; unchanged concentration in rat liver microsomes [1, 7]: 63.33 ± 5.45; plasma binding rate [2, 8]: 64.46%; plasma binding rate ([2]; isomer concentration 125 μg/ml): 62.18%; plasma binding rate ([2]; isomer concentration 250 μg/ml): 56.02%

Q: What does the source list for `CN1CC2CCCC(C1)C2OC(=O)C(O)(c1ccccc1)C1CCCC1` (centres unmarked)?
A: incidence of drowsiness (motion sickness [3]): significantly lower than that of scopolamine; overall effective rates for the prevention of seasickness and carsickness (motion sickness [3]; oral 1–2 mg/person): very significantly higher than that of placebo and control drug

Q: Which results are given for `CN1CC2CCCC(C1)C2OC(=O)[C@](O)(c1ccccc1)C1CCCC1` (some centres unmarked)?
A: total distance (locomotor activity) (locomotor activity): reversely increased the total distance; central distance ratio (anxiogenic indicator) (locomotor activity; versus model group): significantly reduce the central distance ratio; permeability across Caco-2 monolayer (Caco-2 cell monolayer): no obvious difference in the permeability; unchanged concentration in rat liver microsomes [1, 5]: 90.92 ± 2.72; unchanged concentration in rat liver microsomes [1, 6]: 23.14 ± 1.86; unchanged concentration in rat liver microsomes [1, 7]: 38.33 ± 1.58; decrease of CYP1A1 protein (CYP1A1): 23%; reduction of the motion sickness index (motion sickness [4]; high dose 5.6 mg/kg): 79.3%; reduction of the motion sickness index (motion sickness [4]; low dose 1.4 mg/kg): 53.4%; plasma binding rate [2, 8]: 64.03%; plasma binding rate ([2]; isomer concentration 125 μg/ml): 60.33%; plasma binding rate ([2]; isomer concentration 250 μg/ml): 54.65%
